The test system of this test is HepG2. Kind of test: Induction of GSH depletion in human HepG2 cells measured after 22 hrs by GSH-glo luminescence assay. Format: functional, cell-based.

As for `Cc1nc(-c2ccc3c(c2)CCN3C(=O)CCl)cs1`, the Activity result was “Dose-Dependent Effect”.
